The values that follow come from patent publication US20220162323A1 (Regeneron, published 2022).

For orientation: Kd means the concentration at which binding is half-saturated.

This experiment addresses T1, hFGFR2b.mmh (human).
T1 construct: also called Human FGFR2b with C-terminal myc-myc-hexahistidine tag
T1 chain: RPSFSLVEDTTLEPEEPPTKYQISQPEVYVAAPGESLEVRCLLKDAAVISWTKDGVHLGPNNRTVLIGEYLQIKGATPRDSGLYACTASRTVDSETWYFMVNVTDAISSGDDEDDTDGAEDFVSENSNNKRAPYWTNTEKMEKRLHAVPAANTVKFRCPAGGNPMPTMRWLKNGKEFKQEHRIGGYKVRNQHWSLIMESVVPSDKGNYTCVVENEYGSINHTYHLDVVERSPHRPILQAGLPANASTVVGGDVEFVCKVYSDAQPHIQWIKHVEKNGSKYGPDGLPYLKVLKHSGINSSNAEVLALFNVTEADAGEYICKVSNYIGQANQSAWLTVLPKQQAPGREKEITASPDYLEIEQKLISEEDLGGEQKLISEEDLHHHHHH
In words: SPR (Biacore), ADC captured by anti-human Fc, hFGFR2b-MMH as analyte, 25 C. How it is done:
The equilibrium dissociation constants (KD values) for hFGFR2b.mmh binding to anti-FGFR2 antibodies conjugated with Tubulysin (“tubulysin 1ALP”), Auristatin (“auristatin LP1”), or mc-VC-PAB-NMe-C3-May (“maytansinoid 1ALP”) were determined using a real-time surface plasmon resonance biosensor assay on a Biacore 2000 or a Biacore 4000 instrument. The Biacore sensor surface was derivatized by amine coupling with a monoclonal mouse anti-human Fc antibody (REGN2567 or Jackson Cat. No #109-005-098) to capture anti-FGFR2 ADC and parent unmodified antibodies expressed with human constant regions. Biacore binding studies were performed in HBS-EP running buffer (0.01M HEPES pH 7.4, 0.15M NaCl, 3 mM EDTA, 0.05% v/v Surfactant P20). […] Association of hFGFR2b-MMH or hFGFR2c-MMH to each of the captured ADCs and monoclonal antibodies was monitored for 4 minutes. Subsequently, dissociation was monitored for 10 minutes in HBS-EP running buffer. […] Kinetic association (kₐ) and dissociation (kd) rate constants were determined by fitting the real-time sensorgrams to a 1:1 binding model using Scrubber 2.0c curve fitting software. […] Binding dissociation equilibrium constants (KD) and dissociative half-lives (t½) were calculated from the kinetic rate constants as: […]

B1: mAb2-tubulysin 1ALP (antibody, V domains shown)
VH: QVQLVESGGGVVQPGKSLRLSCAASGFTFSNYGMHWVRQTPVKGLEWVTLIWYDGSNKYYTDSVKGRFTISRDNSKNTLYLQMNSLRSEDTAVYYCAREGNWNYGHAFDIWGQGTMVTVSS
VL: DIQMTQSPSTLSASVGDRVTITCRASQNIGNWLAWYQQKPGKAPNLLIYKASTLESGVPSRFSGSGSGTEFTLTISSLQPDDFATYNCQQYNSYSPTFGQGTKLEIKR
modifications: deglycosylated; Q295 carries azido-PEG3-amine clicked to Tubulysin 1A-LP; DAR 2.1 per antibody
notes: also called Anti FGFR2 mAb2-PEG3-N3-Tubulysin 1A-LP
Molecule B1 yielded a dissociation constant (Kd) of 23.1 nM.

B2: mAb1-tubulysin 1ALP (antibody, human IgG4 S228P, kappa, V domains shown)
VH: QVQLVESGGGVVQPGRSLRLSCAASGFTFSSYGMHWVRQAPGKGLEWVAVIWYDGSNKYYADSVKGRFTISRDNSKNTLYLQMNSLRAEDTAVYYCAREESSASGVDYWGQGTLVTVSS
VL: EIVLTQSPGTLSLSPGERATLSCRASQSVSTRYLAWYQQKRGQAPRLLIYGASSRATGIPDRFSGSGSGTDFTLTISRLEPEDFAVYYCQEYGSSSITFGQGTRLEIKR
modifications: deglycosylated; Q295 carries azido-PEG3-amine clicked to Tubulysin 1A-LP; DAR 2.1 per antibody
notes: also called Anti FGFR2 mAb1-PEG3-N3-Tubulysin 1A-LP
In turn, B2 had a Kd of 48.1 nM. This Kd lies about 2.1-fold higher than the previous one.
